Settings: 1 g salt added to 9 g anhydrous betaine glycolate ionic fluid; heated at 105° C. for 2 hours; remained a viscous fluid after cooling to room temperature

betaine salicylate
Solubility of betaine salicylate in betaine glycolate ionic fluid (appearance of the mixture): formed a clear fluid
